Assay results reported in patent US20030027819A1, “Beta-sheet mimetics and methods relating to the use thereof” (Molecumetics Ltd., priority 1996, published 2003).

What follows are compounds tested against thrombin (Bos taurus, UniProt P00735) (assay: Thrombin inhibition by solid phase compounds of Tables 11-15). Details: read-out: Ki as thrombin inhibitors (mark at Cpd. No.); mixtures of diastereomers.
In the case of `COc1ccc(S(=O)(=O)CCn2c(=O)n3n(c2=O)C(C(=O)NCC2CCC(N)CC2)C=CC3)cc1` (stereo not drawn), the Ki is reported as under 10 nM. `CC1C=CC(C(=O)NCC2CCC(N)CC2)n2c(=O)n(CC(c3ccccc3)c3ccccc3)c(=O)n21` (stereo not drawn) showed a Ki of under 10 nM. `NC1CCC(CNC(=O)C2C=CCn3c(=O)n(CC(c4ccccc4)c4ccccc4)c(=O)n32)CC1` (stereo not drawn) showed a Ki of under 10 nM. In the case of `Cc1ccc(S(=O)(=O)CCn2c(=O)n3n(c2=O)C(C(=O)NCC2CCC(N)CC2)C=CC3)cc1` (stereo not drawn), the Ki is reported as under 10 nM. `COc1ccc(CCn2c(=O)n3n(c2=O)C(C(=O)NCC2CCC(C(=N)N)CC2)C=C(C)C3)cc1OC` (stereo not drawn) was tested, and the Ki was under 10 nM. In the case of `CC1=CC(C(=O)NCC2CCC(C(=N)N)CC2)n2c(=O)n(CCc3ccccc3)c(=O)n2C1` (stereo not drawn), the Ki is reported as under 10 nM. With `CC1=CC(C(=O)NCC2CCC(C(=N)N)CC2)n2c(=O)n(CCS(=O)(=O)c3ccccc3)c(=O)n2C1` (stereo not drawn) the Ki was under 10 nM. Compound `CCC1(N)C(=O)N2C(Cc3ccccc3)C=CC(C(=O)NC(CCCCN)C(=O)C(N)=O)N2C1=O` (stereo not drawn) has a Ki of under 10 nM. With `CC1=CC(C(=O)NCC2CCC(N)CC2)n2c(=O)n(CC(c3ccccc3)c3ccccc3)c(=O)n2C1` (stereo not drawn) the Ki was under 10 nM. Work on `NC1CCC(CNC(=O)C2C=CCn3c(=O)n(CCS(=O)(=O)c4ccccc4)c(=O)n32)CC1` (stereo not drawn) yielded a Ki of under 10 nM. For `CC1=CC(C(=O)NCC2CCC(N)CC2)n2c(=O)n(CC(C)c3ccccc3)c(=O)n2C1` (stereo not drawn), the Ki was under 10 nM.

Each compound was assayed on thrombus formation (assay: Rat silk thread shunt thrombosis model). Details: 100 mg.kg oral, 30 minutes before circulation.
With `NC1CCC(CNC(=O)C2C=CCn3c(=O)n(CCS(=O)(=O)c4ccccc4)c(=O)n32)CC1` (stereo not drawn) the “thrombus formation (thrombus protein, FIGS. 5A and 5B)” value was “significantly inhibit thrombus formation”.
